Experimental findings from PubChem BioAssay AID2718 (Broad Institute, 2010) are described below.

Protein sequences, listed by entry. Tags and fused reporters are not part of them. Lines headed by an entry give the natural chain unless they say otherwise; changes in a name come on top.
UniProt O15379: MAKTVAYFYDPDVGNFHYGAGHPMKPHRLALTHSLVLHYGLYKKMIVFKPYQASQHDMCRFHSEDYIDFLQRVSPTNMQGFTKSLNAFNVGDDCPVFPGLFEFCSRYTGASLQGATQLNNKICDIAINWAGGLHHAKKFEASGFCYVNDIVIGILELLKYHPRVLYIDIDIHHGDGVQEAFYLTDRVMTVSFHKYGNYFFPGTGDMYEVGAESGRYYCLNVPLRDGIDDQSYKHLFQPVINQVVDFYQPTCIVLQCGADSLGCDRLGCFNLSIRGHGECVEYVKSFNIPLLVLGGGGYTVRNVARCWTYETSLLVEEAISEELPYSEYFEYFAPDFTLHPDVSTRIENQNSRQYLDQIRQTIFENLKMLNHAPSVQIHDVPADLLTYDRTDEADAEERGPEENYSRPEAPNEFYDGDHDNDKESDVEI

Only a part is listed here, and it is no random draw. Calls of active or inactive are those of the source. Rule as the data show it: active = inhibition above about 26% (passing the limit was not always enough); inconclusive = no clear call, values can overlap the other calls.

The experiment addresses Histone deacetylase 3 (Homo sapiens) (UniProt O15379). The experiment is described as follows: HDAC3 deacetylase inhibitors, primary screen, biochemical, fluorescence, cell-free homogeneous (AID 2718). The note with it: recombinant HDAC3, fluorogenic peptide/trypsin coupled, at 8.3 µM, active compounds read high.
`Nc1ccc([As](=O)(O)c2ccc(N)cc2)cc1`: the inhibition is inactive: -6.07%.

As for `C[N+]1=C2C=CC=CC=C2SC12C([N+](=O)[O-])=CC([N+](=O)[O-])=C[C-]2[N+](=O)[O-]` (stereo not given), the inhibition was inactive: 1.01%.

Take `CCN(/C(=N/P(=O)(N1CCOCC1)N1CCOCC1)N1CCOCC1)c1ccc(OC)cc1`: the inhibition was inactive: -2.74%.

Take `CC(C)=N/N=C(\N)N[N+](=O)[O-]`: the inhibition was inactive: 2.72%.

With `CN(C)C(=O)OCCc1n(C)cc[n+]1C`, the inhibition is inactive: -0.0759%.

As to `CC1CCN(C(=O)Oc2c(Cl)cc(Cl)c3cccnc23)CC1`, the inhibition was inactive: 5.34%.

Regarding `COc1ccc(C2=NCC(CBr)S2)cc1` (stereo not given), the inhibition was inactive: -1.56%.

For the compound `O=[N+]([O-])c1cccc2n[nH]nc12`, the inhibition is inactive: 3.5%.

For the compound `CC(=O)N1C2C3N(C(C)=O)C1C1N(C(C)=O)C(C(N1C(C)=O)N3C(C)=O)N2C(C)=O`, the inhibition was inactive: 0.931%.

As for `Cc1ccc(NP(=O)(Oc2ccccc2)Oc2ccccc2)nc1`, the inhibition was inactive: 0.935%.

For the compound `CCc1nc2c(n1)c1c(non1O)c1c2no[n+]1[O-]`, the inhibition is inactive: -0.364%.

For `O=[N+]([O-])c1cc([N+](=O)[O-])c(CCNc2ccccc2)c([N+](=O)[O-])c1`, the inhibition was inactive: 1.75%.

Take `CC(C)(C)C(=O)NC(Sc1ccncn1)C(Cl)(Cl)Cl` (stereo not given): the inhibition is inactive: 0.464%.

For `O=[N+]([O-])c1ncn(CCn2ncnc2[N+](=O)[O-])n1`, the inhibition is inactive: 0.997%.

As to `O=[N+]([O-])c1cccc(NC2=NCC(CBr)S2)c1` (stereo not given), the inhibition was inactive: 1.61%.

`O=C(O)CNc1ccc([As](=O)(O)O)cc1`: the inhibition was inactive: 10.4%.

In the case of `O=C(Nc1cc([As](=O)(O)O)ccc1O)c1ccccc1`, the inhibition was inactive: 1.65%.

As for `O=[N+]([O-])c1cc([N+](=O)[O-])c(CCN2CCOCC2)c([N+](=O)[O-])c1`, the inhibition is inactive: 8.65%.

Consider `CCN(N=Nc1nonc1N)c1nonc1N`, for which the inhibition is inactive: 4.52%.

`Nc1cccc2ccc([As](=O)(O)O)cc12`: the inhibition is inactive: -4.08%.

On to `O=C(O)c1ccccc1[As](=O)(O)O`, for which the inhibition is inactive: -0.55%.

With `CC(=O)Nc1ccc([As](=O)(O)O)cc1`, the inhibition is inactive: 0.491%.

`O=P(Nc1nc2ccc(Cl)cc2s1)(c1ccccc1)c1ccccc1`: the inhibition is inactive: -1.63%.

In the case of `CCOP(=O)(Nc1ccccc1)OCC`, the inhibition was inactive: 3.97%.

Take `Cc1cc(SC(NC(=O)c2ccc(F)cc2)C(Cl)(Cl)Cl)ncn1` (stereo not given): the inhibition was inactive: 3.44%.

`Cc1ccc(NP(=O)(Oc2ccccc2F)Oc2ccccc2F)nc1`: the inhibition was inactive: -0.9%.

For `CN(C(=O)Cc1ccc(Cl)c(Cl)c1)[C@H]1CCCC[C@@H]1N1CCCC1`, the inhibition was inactive: -4.89%.

For the compound `CC(C)CC(=O)NC(Sc1ccc(Cl)cc1)C(Cl)(Cl)Cl` (stereo not given), the inhibition was inactive: -3.14%.

As to `Nc1cc(N)c2nonc2c1[N+](=O)[O-]`, the inhibition is inactive: -0.604%.

`Oc1ccccc1CNc1ccccn1`: the inhibition was inactive: -2.79%.

As for `Cc1c2non([O-])c-2c(C)[n+](=O)[n+]1[O-]`, the inhibition is inactive: 3.53%.

For `O=C(NC(Sc1ccncn1)C(Cl)(Cl)Cl)c1ccccc1` (stereo not given), the inhibition is inactive: -1.26%.

On to `NC(=O)c1cc([N+](=O)[O-])cc([N+](=O)[O-])c1N`, for which the inhibition is inactive: 7.17%.

In the case of `CN(C(=O)Cc1ccc(Cl)c(Cl)c1)[C@H]1CCCC[C@H]1N1CCCC1`, the inhibition is inactive: 3.03%.

With `Cc1ccc(N/C(=N/P(=O)(N2CCOCC2)N2CCOCC2)N2CCOCC2)cc1`, the inhibition is inactive: 6.2%.

For the compound `COc1ccccc1OP(=O)(Nc1ccc(C)cn1)Oc1ccccc1OC`, the inhibition was inactive: 1.77%.

Consider `Cc1ccc(OP(=O)(Nc2nccs2)Oc2ccc(C)cc2)cc1`, for which the inhibition was inactive: 0.861%.

In the case of `Clc1ccc(Cl)c(NC2=NCC(CBr)S2)c1` (stereo not given), the inhibition was inactive: 1.25%.

Regarding `CN1CCCC(OC(=O)C(c2ccccc2)c2ccccc2)C1` (stereo not given), the inhibition is inactive: 0.89%.

As for `C[C@@H]1C=CCP(=O)(Oc2ccccc2)O1` (stereo not given in full), the inhibition is inactive: -4.01%.

`C[C@H]1OP(=O)(Oc2ccccc2)C[C@@H]2O[C@@H]21` (stereo not given in full): the inhibition was inactive: -2.87%.

With `CC(=O)Nc1ccc([As](=O)(O)O)c(O)c1`, the inhibition is inactive: -2.62%.

For `CC(=O)Nc1ccc(Oc2c([N+](=O)[O-])cc([N+](=O)[O-])cc2[N+](=O)[O-])cc1`, the inhibition is inactive: 3.25%.

In the case of `O=P1(Nc2nc3ccc(Cl)cc3s2)COc2ccccc2O1` (stereo not given), the inhibition was inactive: 0.0115%.

Take `CCOc1ccc(C2=NCC(CBr)S2)cc1` (stereo not given): the inhibition was inactive: -2.92%.

Regarding `CC(C)(C)C(=O)NC(Sc1ccccc1)C(Cl)(Cl)Cl` (stereo not given), the inhibition was inactive: 9.29%.

In the case of `COC(=O)c1cc2c(s1)N=C(c1ccccc1)N(C)P2(=O)N1CCOCC1` (stereo not given), the inhibition is inactive: 3.82%.

Take `Cc1ccc(OP(=O)(Nc2ccccn2)Oc2ccc(C)cc2)cc1`: the inhibition was inactive: 1.79%.

On to `CC(=O)NC(SC(=S)N(CC(C)C)CC(C)C)C(Cl)(Cl)Cl` (stereo not given), for which the inhibition was inactive: 6.89%.

Consider `O=C(OC1CN2CCC1CC2)c1ccccc1` (stereo not given), for which the inhibition is inactive: -0.53%.

Take `CCC(=O)N1C2C3N(C(=O)CC)C1C1N(C(=O)CC)C(C(N1C(=O)CC)N3C(=O)CC)N2C(=O)CC`: the inhibition was inactive: 0.1%.

With `Cc1ccccc1OP(=O)(Nc1ccccn1)Oc1ccccc1C`, the inhibition was inactive: -0.294%.

In the case of `CC(NC(=O)COC(=O)C(O)(c1ccccc1)c1ccccc1)c1ccccc1` (stereo not given), the inhibition is inactive: -2.15%.

For `CN(C)C(=O)Oc1noc2ccccc12`, the inhibition is inactive: 3.02%.

For `CCNC(=S)/N=C(\N)N[N+](=O)[O-]`, the inhibition was inactive: 7.59%.

Regarding `O=C(NC1CCS(=O)(=O)C1)NP(=S)(Oc1ccccc1)Oc1ccccc1` (stereo not given), the inhibition was inactive: -2.18%.

For `c1ccc(-c2nn[nH]n2)c(-c2nn[nH]n2)c1`, the inhibition was inactive: 3.28%.

In the case of `CCOC(=O)NC(Sc1ccccc1)C(Cl)(Cl)Cl` (stereo not given), the inhibition is inactive: -3.32%.

In the case of `Cc1ccc(NP(=O)(Oc2cccc(C)c2)Oc2cccc(C)c2)nc1`, the inhibition was inactive: -4.19%.

Take `O=[N+]([O-])c1ccc(O)c(/C=N/Nc2ccc([N+](=O)[O-])cc2[N+](=O)[O-])c1`: the inhibition was inactive: -5.57%.

Consider `O=[N+]([O-])c1ncn(CCn2cnc([N+](=O)[O-])n2)n1`, for which the inhibition is inactive: -4.34%.

In the case of `CC(=O)NC(SC(=S)N(C)C)C(Cl)(Cl)Cl` (stereo not given), the inhibition is inactive: 3.66%.

Take `O=[As](O)(c1ccccc1)c1ccc(O)cc1`: the inhibition is inactive: 2.49%.

As to `Nc1ccc([As](=O)(O)c2ccc([N+](=O)[O-])cc2)cc1`, the inhibition was inactive: -2.23%.

On to `C(Cc1nn[nH]n1)Cc1nn[nH]n1`, for which the inhibition is inactive: 5.18%.

As to `O=C(OC1CN2CCC1CC2)c1cccc(Cl)c1` (stereo not given), the inhibition is inactive: 1.1%.

In the case of `O=P(Nc1ccccn1)(c1ccc(Br)cc1)c1ccc(Br)cc1`, the inhibition is inactive: 0.345%.

Regarding `CN(C)C1(CNC(=O)c2ccc(Cl)c(S(N)(=O)=O)c2)CCCCC1`, the inhibition was inactive: 3.46%.

On to `C[C@H]1OP(=O)(Oc2ccccc2)[C@H](O)[C@H](O)[C@H]1N=[N+]=[N-]` (stereo not given in full), for which the inhibition was inactive: 6.53%.

Consider `CC(C)C(=O)NC(Sc1ccccc1)C(Cl)(Cl)Cl` (stereo not given), for which the inhibition was inactive: -3.79%.

As for `O=P(Nc1nccs1)(c1ccccc1)c1ccccc1`, the inhibition was inactive: -5.53%.

`c1nnnn1CCn1cnnn1`: the inhibition was inactive: -2.6%.

`COc1ccccc1CNC(=O)COC(=O)C(O)(c1ccccc1)c1ccccc1`: the inhibition was inactive: -8.31%.

Turning to `CC1(CBr)Cn2c(nc3ccccc3c2=O)S1` (stereo not given), the inhibition was inactive: 6.19%.

`CC(C)/C=N\N=C(\N)N[N+](=O)[O-]`: the inhibition is inactive: -1.42%.

On to `CN(C(=O)Cc1ccc(Cl)c(Cl)c1)[C@@H]1CCCC[C@H]1N1CCCC1`, for which the inhibition was inactive: -1.89%.

With `CN(CCCl)Cc1cc(Cl)c(NC2=NCCN2)c(Cl)c1`, the inhibition is inactive: -5.49%.

As for `CCOP(=O)(Nc1ccc(C)cn1)OCC`, the inhibition was inactive: 1.97%.

For `O=P1(Nc2ccccn2)COc2ccccc2OC1`, the inhibition was inactive: -4%.

On to `CCC1=CC2Cc3nc4ccc(Cl)cc4c(N)c3C(C1)C2` (stereo not given), for which the inhibition was inactive: 2.79%.

As to `CCOP(=O)(NC(=NC(C)c1ccccc1)NC(C)c1ccccc1)OCC` (stereo not given), the inhibition is inactive: -2.52%.

As for `Clc1n[nH]nc1-c1nn[nH][15n]1`, the inhibition is inactive: 0.891%.

On to `O=P1(Nc2ncccn2)COc2ccccc2OC1`, for which the inhibition was inactive: -0.72%.

With `O=P1(Nc2ccc(Br)cn2)COc2ccccc2OC1`, the inhibition was inactive: -1.35%.

Turning to `NS(=O)(=O)c1cccc(NC(=O)COC(=O)C(O)(c2ccccc2)c2ccccc2)c1`, the inhibition was inactive: 3.58%.

Take `O=[As](O)(c1cccs1)c1cccs1`: the inhibition was inactive: 0.313%.

On to `Cc1ccc(OCC(=O)OC2CN3CCC2CC3)cc1` (stereo not given), for which the inhibition is inactive: -0.776%.

`Nc1cccc([As](=O)(O)c2ccccc2)c1`: the inhibition is inactive: -2.62%.

Consider `Cc1nn(-c2ccccc2)c2c1P(=O)(N1CCOCC1)N(C)C(c1ccccc1)=N2` (stereo not given), for which the inhibition is inactive: 9.53%.

For `CC1CCC(C(C)C)C(OP(=O)(Nc2ccccn2)c2ccccc2)C1` (stereo not given), the inhibition is inactive: 15.8%.

For `Cc1ccc(C(=O)OC2CN3CCC2CC3)cc1` (stereo not given), the inhibition was inactive: -3.8%.

As for `O=C(/C=C/c1ccccc1)OC1CN2CCC1CC2` (stereo not given), the inhibition was inactive: -2.06%.

Turning to `CN(C)C1(CNC(=O)c2ccc(S(C)(=O)=O)cc2)CCCCC1`, the inhibition was inactive: -10.8%.

Consider `NC(=O)Nc1ccc([As](=O)(O)O)cc1`, for which the inhibition was inactive: -7.2%.

Take `CN(C)C(=O)c1cc([N+](=O)[O-])cc2c1-c1c(cc([N+](=O)[O-])cc1[N+](=O)[O-])C2=O`: the inhibition was inactive: -2.2%.

On to `O=[N+]([O-])c1ccc2c(c1)nnn2O`, for which the inhibition is inactive: -1.38%.

As for `CN(C(=O)Cc1ccc(Cl)c(Cl)c1)[C@H]1CC[C@@]2(CCCO2)C[C@@H]1N1CCCC1`, the inhibition was inactive: -0.831%.

On to `N#CCCN(C(=O)COC(=O)C(O)(c1ccccc1)c1ccccc1)c1ccc(F)cc1`, for which the inhibition is inactive: 4.9%.

Consider `CN(C(=O)Cc1ccccc1)[C@@H]1CC[C@]2(CCCO2)C[C@H]1N1CCCC1`, for which the inhibition was inactive: 2.76%.

For `CCOP1(=S)c2c(C)nn(CCC#N)c2N=C(c2ccc(F)cc2)N1C` (stereo not given), the inhibition was inactive: -0.165%.
